Assay results as given in ChEMBL document CHEMBL3632481, “Applications of Fluorine in Medicinal Chemistry” (J Med Chem, 2015).

Molecular target: Protease (Human immunodeficiency virus 1, UniProt Q9YQ12)
Experiment: Inhibition of HIV1 protease assessed as cleavage of Lys-Ala-Arg-Val-Nle-NphGlu-Ala-Nle-NH2

| Ki [nM] | Structure (SMILES) |
| --- | --- |
| 1.9 | CC(C)(C)NC(=O)[C@@H]1CN(Cc2cccnc2)CCN1C[C@@H](O)C[C@@H](Cc1ccccc1)C(=O)N[C@H]1c2ccccc2C[C@H]1O |
| 160 | CC(C)(C)NC(=O)[C@@H]1CN(Cc2cccnc2)CCN1C[C@H](O)C[C@@H](Cc1ccccc1)C(=O)N[C@H]1c2ccccc2C[C@H]1O |
